Assay results from ChEMBL document CHEMBL3297731, “The design and discovery of water soluble 4-substituted-2,6-dimethylfuro[2,3-d]pyrimidines as multitargeted receptor tyrosine kinase inhibitors and microtubule targeting antitumor agents” (Bioorg Med Chem, 2014).
Calls of active or inactive are those of the source. No cut-off for these calls is given here.

The chains behind the UniProt entries cited, without tags or fusion partners.
UniProt P02554, whole entry, looked up: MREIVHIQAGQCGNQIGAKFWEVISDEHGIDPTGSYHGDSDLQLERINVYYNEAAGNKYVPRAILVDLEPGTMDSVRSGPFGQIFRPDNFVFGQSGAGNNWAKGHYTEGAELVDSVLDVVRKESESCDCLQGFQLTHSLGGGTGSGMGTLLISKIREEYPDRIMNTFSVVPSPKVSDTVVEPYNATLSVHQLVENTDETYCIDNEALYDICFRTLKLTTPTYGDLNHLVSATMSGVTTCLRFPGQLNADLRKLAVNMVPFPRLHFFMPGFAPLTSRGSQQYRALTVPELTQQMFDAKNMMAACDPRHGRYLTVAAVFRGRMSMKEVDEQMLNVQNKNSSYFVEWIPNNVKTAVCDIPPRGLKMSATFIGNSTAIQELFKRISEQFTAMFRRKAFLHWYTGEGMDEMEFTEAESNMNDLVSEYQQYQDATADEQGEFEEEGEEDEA
UniProt P02550, whole entry, looked up: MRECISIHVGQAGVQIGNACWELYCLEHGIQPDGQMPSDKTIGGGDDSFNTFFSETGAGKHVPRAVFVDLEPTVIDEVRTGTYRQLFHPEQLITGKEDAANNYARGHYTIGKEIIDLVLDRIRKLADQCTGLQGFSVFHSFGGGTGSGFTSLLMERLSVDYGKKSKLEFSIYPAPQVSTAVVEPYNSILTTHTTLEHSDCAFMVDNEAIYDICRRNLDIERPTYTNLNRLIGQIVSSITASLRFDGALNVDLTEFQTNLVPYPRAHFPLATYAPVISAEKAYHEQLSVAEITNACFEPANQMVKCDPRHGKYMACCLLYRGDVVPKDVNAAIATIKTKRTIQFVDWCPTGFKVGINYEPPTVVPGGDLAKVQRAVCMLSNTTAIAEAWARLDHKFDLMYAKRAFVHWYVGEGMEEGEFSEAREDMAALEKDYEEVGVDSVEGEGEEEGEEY

How the values were obtained:
in vivo = conditions: BALBc/J, mouse
NCI-H522 = experiment: cells; conditions: Homo sapiens
Tubulin (Sus scrofa) = Tubulin (Sus scrofa) (UniProt P02554+P02550); conditions: 10 uM

CCN(CC)CCNC(=O)c1c(C)[nH]c(/C=C2\C(=O)Nc3ccc(F)cc32)c1C [SUNITINIB]
MTD (in vivo): 30 mg/kg

COc1ccc(N(C)c2nc(C)nc3oc(C)cc23)cc1 [listing 1 of 2 here]
GI50 (NCI-H522): < 1 nM

COc1ccc(N(C)c2nc(C)nc3oc(C)cc23)cc1 [listing 2 of 2 here]
inhibition (Tubulin (Sus scrofa)): Active
